Binding of CDR-mutated scFvs to a peptide of the spike HR2 region

Source: Engelhart et al. 2022 (doi:10.1038/s41597-022-01779-4), MIT Lincoln Laboratory and A-Alpha Bio; data file from the FLAb repository.

Target: peptide PDVDLGDISGINAS, taken from heptad repeat 2 (HR2) of SARS-CoV-2 spike.

The variants keep the light chain, the linker and the frameworks of Ab-14 (scFv order VH, the linker GGGGSGGGGSGGGGS, VL).
VH: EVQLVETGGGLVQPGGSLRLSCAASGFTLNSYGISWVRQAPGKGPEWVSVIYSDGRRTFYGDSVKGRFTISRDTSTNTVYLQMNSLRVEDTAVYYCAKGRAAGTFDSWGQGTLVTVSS
VL: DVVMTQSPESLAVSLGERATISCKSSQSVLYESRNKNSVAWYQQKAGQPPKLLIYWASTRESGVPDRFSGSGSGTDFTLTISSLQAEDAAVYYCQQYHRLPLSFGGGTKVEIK

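The library (AAYL49) carries one to three amino acid substitutions per variant, with no insertions or deletions. The scFvs were displayed on barcoded MATa yeast, the peptide on MATalpha yeast. After mating in shaken culture at 30 °C for 16 h, diploids were selected and their barcode pairs sequenced. Scores were corrected for input abundance and mapped to Kd with protein pairs of known affinity run in the same pool. There are three technical replicates.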

Variants are written as CDR1, CDR2 and CDR3 of the heavy chain (limits as in the source). Parent: GFTLNSYGIS, VIYSDGRRTFYGDSVK, GRAAGTFDS. Every variant below is changed at K65 of the VH (sequential numbering). The read-out is the apparent dissociation constant on a log10 scale (nM): the lower, the stronger. Averages over replicates are reported, and they cover detected replicates only. Where no diploid with the target was found in any replicate, the entry reads "nd": below detection, most likely a poor binder, though not proof of it. Background: pairings of library AAYL49 with three empty control strains gave a value in 15% of cases (median 4.06, 5th percentile 2.83). Values in that range, when seen in few replicates, are hard to tell from nonspecific mating. For each scFv, signals with the empty controls are counted beside the result. For reference, the parent read 0.65 as the reference entry and 4.11 (one replicate of three) as a member of this library.

For GFTLNSYGIS | VIYSDGLRTFYGDSVC | GRAAGFFDS, the assay gave 3.17 (2 of 3 replicates; controls 0 of 9). For GFTLNSYGIS | VIYSDGRRTFYGDSVS | GRAAGIFDH, the assay gave 4.71 (1 of 3 replicates; controls 2 of 9). The variant GFTLNWYGLS | VIYSDGRRTFYGDSVG | GRAAGTFDS showed nd (0 of 3 replicates; controls 1 of 9). With GFTLNSYGIS | VIYSDGRRTFYGDSVL | GRAAGKFDV the result was 1.80 (3 of 3 replicates; controls 0 of 9). For GFTLNSYGIS | VIYSDGRRTFYGRIVH | GRAAGTFDS, the assay gave nd (0 of 3 replicates; controls 0 of 9). The variant NFTLNSYGIV | VIYSDGRRTFYGDSVL | GRAAGTFDS showed 5.08 (1 of 3 replicates; controls 1 of 9). For GFTLNSYGIS | VIYSDGRRCFYGDSVL | GRATGTFDS, the assay gave 3.99 (3 of 3 replicates; controls 0 of 9). The variant GFTLNSYGIS | GIYSTGRRTFYGDSVI | GRAAGTFDS showed nd (0 of 3 replicates; controls 1 of 9).

The variant GFTLNSYGIS | VIYSDGRRTFYGDSVT | GRAQGTFDS gave 1.81 (3 of 3 replicates; controls 1 of 9). For GFTLNSYGIS | VIYSDGRRTFYGTSVL | GRAVGTFDS, the assay gave 3.07 (3 of 3 replicates; controls 4 of 9). With GFTLNSAGIS | VIYSDGRRTFYGDGVR | GRAAGTFDS the result was nd (0 of 3 replicates; controls 0 of 9). For GFTLNSNGIS | VIYSDGRRTFYGDSPG | GRAAGTFDS, the assay gave nd (0 of 3 replicates; controls 0 of 9). With GFTLNSYGIS | VIQSNGRRTFYGDSVC | GRAAGTFDS the result was nd (0 of 3 replicates; controls 2 of 9). With GFTLNSQGIS | VIYSDGRRTFYGDSVC | GEAAGTFDS the result was 4.26 (2 of 3 replicates; controls 4 of 9). For GFTLNSYQIS | VIYSDGRRTFYGDSVW | GRAAGTFDS, the assay gave 4.06 (1 of 3 replicates; controls 4 of 9). For GFTLNSYGIS | VIYSDGRRFFYGDSVV | GRAAGTFDS, the assay gave 2.96 (3 of 3 replicates; controls 1 of 9).

With CFTLNSYGPS | VIYSDGRRTFYGDSVN | GRAAGTFDS the result was nd (0 of 3 replicates; controls 1 of 9). The variant GFTLNSYGIS | VIYSDGGRTFYGDSAG | GRAAGTFDS showed 3.50 (1 of 3 replicates; controls 2 of 9). With GFTLNSYGIS | VIYSDDERTFYGDSVV | GRAAGTFDS the result was 4.39 (2 of 3 replicates; controls 0 of 9). The variant GFTLNSYGIS | VIYSDGRRTFYGDSVD | GRAAGTFDS gave nd (0 of 3 replicates; controls 0 of 9). The variant GFTLNSYGIS | VIYSDGRRTFYGDSVS | GRAAGTFDS showed 1.69 (3 of 3 replicates; controls 0 of 9). The variant GFTLNSYGIS | VIYSDGRRTFYGDSVN | GRAAGTFDS showed 1.08 (3 of 3 replicates; controls 3 of 9). With GFTLNSYGIS | VIYMDGIRTFYGDSVV | GRAAGTFDS the result was nd (0 of 3 replicates; controls 1 of 9). The variant QFTANSYGIS | VIYSDGRRTFYGDSVF | GRAAGTFDS showed 3.24 (1 of 3 replicates; controls 4 of 9).

The variant GFVLNSYGIS | VIYSDGRRTFYGDSVG | LRAAGTFDS gave 2.03 (2 of 3 replicates; controls 0 of 9). The variant GFTLNSYGIS | VIVSDGRRTFYGDSVC | PRAAGTFDS showed 4.91 (3 of 3 replicates; controls 9 of 9). For GFTLNSYGIS | TIYSDGRRTFWGDSVA | GRAAGTFDS, the assay gave 4.48 (3 of 3 replicates; controls 3 of 9). For GFTLNWYGIS | VIYSDGRRTFTGDSVE | GRAAGTFDS, the assay gave nd (0 of 3 replicates; controls 0 of 9). The variant DFTLNSYGIS | VIYSDGRRTFYGDSVL | GRAAGTFDS gave 2.46 (3 of 3 replicates; controls 0 of 9). For GFTLCSYGIS | VIYSDGRRTFYGDFVG | GRAAGTFDS, the assay gave nd (0 of 3 replicates; controls 0 of 9). For GFTLNSYGIS | VIYSDGRMTFYGDSVM | GRAAGTFDN, the assay gave nd (0 of 3 replicates; controls 0 of 9). The variant GFTLNSYGIS | VIYSDGRRTFYGDSVW | GVAAGTFDQ gave 2.27 (3 of 3 replicates; controls 1 of 9).

With GFTLNSYGIS | VIYPDGRRTFYGDSVG | GRAAGTFDS the result was 3.56 (3 of 3 replicates; controls 3 of 9).

The 3 strongest on average among those seen in every replicate, once more:

CDR-H1	CDR-H2	CDR-H3	mean log10 Kd (nM)	detected	signal with controls
GFTLNSYGIS	VIYSDGRRTFYGDSVN	GRAAGTFDS	1.08	3/3	3/9
GFTLNSYGIS	VIYSDGRRTFYGDSVS	GRAAGTFDS	1.69	3/3	0/9
GFTLNSYGIS	VIYSDGRRTFYGDSVL	GRAAGKFDV	1.80	3/3	0/9